Reference: PubChem BioAssay (NCATS)
“And” between values parts separate entries of the source, which are not always exact repeats. Identical values can stand only once. The list shows a part of the results, in another mix than the full data. Records with an inconclusive call do not appear. The source made the active and inactive calls. Calls come from the whole dose curve; as a rule, active = well fitted activation curve with a large enough effect; inconclusive = small, poorly fitted or top-dose-only effect; inactive = no such curve, though single readings can be large or run the other way.

Amino acid sequences for entries named in this document (tags omitted).
UniProt P04637, whole entry, looked up: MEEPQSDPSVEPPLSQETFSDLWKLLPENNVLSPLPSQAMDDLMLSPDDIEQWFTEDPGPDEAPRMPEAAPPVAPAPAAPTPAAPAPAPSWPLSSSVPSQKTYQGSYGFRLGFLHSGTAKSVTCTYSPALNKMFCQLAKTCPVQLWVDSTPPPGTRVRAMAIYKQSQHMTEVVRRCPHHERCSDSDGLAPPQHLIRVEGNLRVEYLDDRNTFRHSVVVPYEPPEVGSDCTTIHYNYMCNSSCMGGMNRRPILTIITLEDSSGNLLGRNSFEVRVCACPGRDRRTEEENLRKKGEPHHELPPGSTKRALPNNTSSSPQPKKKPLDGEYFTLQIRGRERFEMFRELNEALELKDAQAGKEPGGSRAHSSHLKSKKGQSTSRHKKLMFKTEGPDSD

biological target: Cellular tumor antigen p53 (Homo sapiens) (UniProt P04637); assay: Primary qHTS for small molecule compounds that upregulate eGFP-tagged delta133p53alpha (in N-terminal) cells. (AID 2060322); conditions: NCI-H358 eGFP-delta133p53alpha fluorescence, 24 h; hits give high values;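 note: cells pre-induced with doxycycline then dosed without doxycycline; series mostly up to about 56 µM; 0% = DMSO vehicle and 100% = reference activator; nearly all actives have a fitted effect of over 75% in size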

SMILES	activation
CCNC(C)Cc1ccc2c(c1)OCO2 (stereo not drawn)	inactive: 0.565%
O=C(O[C@H]1CN2CCC1CC2)C1NCc2ccccc2[C@@H]1c1ccccc1 (stereo partly drawn)	inactive: -2.39%
CN(C(=O)Cc1ccc(Cl)c(Cl)c1)[C@@H]1CC[C@]2(CCCO2)C[C@H]1N1CCCC1	inactive: -70.9%
CN(C(=O)Cc1ccc(Cl)c(Cl)c1)[C@H]1CC[C@@]2(CCCO2)C[C@@H]1N1CCCC1	inactive: -3.35%
CN(C(=O)Cc1ccc(Cl)c(Cl)c1)[C@H]1CCCC[C@H]1N1CCCC1	inactive: -4.77%
Cc1cc([N+](=O)[O-])cc([N+](=O)[O-])c1O	inactive: -18.6%
CCn1c(=O)n([C@@H]2CCN(CC3CCCCCCC3)C[C@H]2CO)c2ccccc21	inactive: -3.34%
CN(C(=O)Cc1ccccc1)[C@H]1CC[C@@]2(CCCO2)C[C@@H]1N1CCCC1	inactive: 10.7%
CN(C(=O)Cc1ccc(Cl)c(Cl)c1)[C@H]1CCCC[C@@H]1N1CCCC1	inactive: -28.9% and inactive: -32.6%
NC(=O)Nc1ccc([As](=O)(O)O)cc1	inactive: -23.4%
CN(C(=O)Cc1ccccc1)[C@@H]1CC[C@]2(CCCO2)C[C@H]1N1CCCC1	inactive: 4.22%
CN(C)C1(c2ccccc2)CCC2(CC1)OCCc1c2[nH]c2ccc(F)cc12 (stereo not drawn)	inactive: 4.77%
CN(C(=O)Cc1ccc(Cl)c(Cl)c1)[C@@H]1CCCC[C@@H]1N1CCCC1	inactive: -36.7%
